Experimental findings from US20220401561A1, “PROTEIN-MACROMOLECULE CONJUGATES AND METHODS OF USE THEREOF” (Beijing Xuanyi PharmaSciences Co., Ltd., priority 2019, published 2022) are described below.

The data set can be described thus: Visible toxicity observed in the B16F10 mouse model. Format: in vivo. Particulars: C57BL/6 mice bearing B16F10 tumors. The procedure:
1×10^5 B16F10 cells were implanted subcutaneously for each 7-9 week old syngeneic C57BL/6 mouse at mid-dorsal region. Tumors were allowed to grow to palpable size, i.e., 70-120 cu mm before randomization and assigning groups (n=8) as designed. The mice were administered test compounds i.e., rIL-2, rIL-2-polymer conjugates or vehicle at different dose concentrations and dose regimes as indicated in Tables 5-9. The body weights and tumor volumes were measured every two or three days. The end point for this study was the time to reach median tumor volume of 2000 cu mm for a given group.
Tumor growth inhibition following the administration of rIL-2 and rIL-2-polymer conjugates at different administration schemes are provided in FIGS. 5-9.

“IL-2: Recombinant IL-2 corresponding to the amino acid sequence of FIG. 1, expressed in E. coli”: the Visible toxicity entry was “lethargy and body chill symptoms”.
